Laboratory results reported in US20240398727A1, “(S)-5-(1-(3,5-BIS(TRIFLUOROMETHYL)PHENOXY)ETHYL)CYCLOHEXANE-1,3-DIONE (NU-9) IMPROVES THE HEALTH OF DISEASED UPPER MOTOR NEURONS” (Northwestern University, priority 2021, published 2024).

Key:
[1] = system: UMNs from prpTDP-43^A315T-UeGFP mice; format: cell-based; settings: prpTDP-43^A315T-UeGFP UMNs, 3 days in vitro, riluzole 500 nM, edaravone 1 μM
Source text: Mice. All animal procedures were approved by the Northwestern University Animal Care and Use committee and comply with the standards of the National Institutes of Health. All mice were on C57BL/6 background. Transgenic hemizygous males expressing a high copy number of the human SOD1 gene with a G93A mutation (B6SJL-Tg (SOD1*G93A)1Gur/J; The Jackson Laboratory) were bred to hemizygous UCHL1-eGFP females to generate hSOD1^G93A-UeGFP and WT-UeGFP (control) mice. UCHL1-eGFP mice were generated in the Ozdinler Lab; they are reporter lines for UMNs (Yasvoina, Genc et al. 2013), and are now available at Jackson Laboratory (stock no. 022476). Hemizygous UCHL1-eGFP females were bred to hemizygous prpTDP-43^A315T mice (procured from Jackson Laboratory, stock no. 010700) to generate prpTDP-43^A315T-UeGFP mice. prpTDP-43^A315T mice were supplied with gel diet (DietGel 76A, ClearH2O, ME, USA) to eliminate gastrointestinal (GI) complications. […]
UMNs were quantitatively analyzed for differences in neurite length and arborization complexity. Images taken with a 20× objective on the epifluorescent microscope (Nikon) were analyzed using the Neurite Tracer plugin from FIJI (NIH), which enables semi-autonomous tracing to measure the length of the axon. […]

[2] = literature value; cited from earlier work

SMILES: Nc1nc2ccc(OC(F)(F)F)cc2s1 [riluzole, 2-Amino-6-(trifluoromethoxy)benzothiazole]
- average length of the axons of UMNs ([1]; NU-9 400 nM, SFM control 199.52±21.15 μm, WT 321.41±17.54 μm): 292.60±28.03 μm
- percentage of UMNs with axons in the range of 200-399 μm [1]: 68%
- concentration reported to be present in the CNS after the optimum dose used in clinical trials [2]: 500 nM
